Assay results published in publication PMC8807399, “Synthesis, Characterization, and in vivo Evaluation of a Novel Potent Autotaxin-Inhibitor” (Frontiers in Pharmacology, 2022).

Molecular target: plasma ATX (Rattus norvegicus, UniProt Q64610)
Details: single dose 10 mg/kg po

SMILES: O=C(OCc1ccc(OC(F)(F)F)cc1)N1C[C@@H]2CN(C(=O)c3ccc4[nH]nnc4c3)C[C@H]2C1 [Compound 13, (3aS,6aS)-5-(1H-Benzotriazole-5-carbonyl)-hexahydro-pyrrolo[3,4-c]pyrrole-2-carboxylic acid 4-trifluoromethoxy-benzyl ester]
- Inhibition of LPA formation 24 h post-dose (24 h post-dose): no inhibition of LPA formation was visible
- Duration of significant inhibition of formation of all four LPA species (plasma incubated at 37°C): ≥ 6 h
